Laboratory results reported in ChEMBL document CHEMBL1649093, “Phthalazinone pyrazoles as potent, selective, and orally bioavailable inhibitors of Aurora-A kinase” (J Med Chem, 2011).

Experiment: Selectivity for Aurora A over Aurora B

Structure (SMILES)	Selectivity ratio
Cc1cc(Nc2nn(Cc3csc(C)n3)c(=O)c3ccccc23)n[nH]1	> 1000
Cc1cc(Nc2nn(-c3ccc(F)cc3)c(=O)c3ccccc23)n[nH]1	> 1000
CC(=O)Nc1ccc(Cn2nc(Nc3cc(C)[nH]n3)c3ccccc3c2=O)cc1	> 1000
Cc1cc(Nc2nn(Cc3ccncc3)c(=O)c3ccccc23)n[nH]1	> 1000
Cc1cc(Nc2nn(Cc3cc(F)ccc3F)c(=O)c3ccccc23)n[nH]1	> 1000
Cc1cc(Nc2nn(Cc3cccnc3)c(=O)c3ccccc23)n[nH]1	> 1000
COc1ccc(-n2nc(Nc3cc(C)[nH]n3)c3ccccc3c2=O)cc1	> 1000
Cc1cc(Nc2nn(Cc3ccc(S(C)(=O)=O)cc3)c(=O)c3ccccc23)n[nH]1	> 1000
Cc1cc(Nc2nn(Cc3ccc([N+](=O)[O-])cc3)c(=O)c3ccccc23)n[nH]1	> 1000
COc1ccc(Cn2nc(Nc3cc(C)[nH]n3)c3ccccc3c2=O)cc1	> 1000
Cc1cc(Nc2nn(C)c(=O)c3ccccc23)n[nH]1	> 1000
CC(=O)Nc1ccc(Cn2nc(Nc3cc[nH]n3)c3ccccc3c2=O)cc1	> 1000
Cc1cc(Nc2nn(CC(C)C)c(=O)c3ccccc23)n[nH]1	> 1000
